## Measured melting point values of organic chemicals

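OPERA's authors assembled the values from existing databases and did not measure them anew. The files give a single number for a compound and property, which may rest on several reports. Method and conditions are not stated for these values. A value may pool stereoisomers or salt forms, and the file does not say which form was measured. Some upstream entries may be estimates or bounds without being marked so.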

Melting points are in °C.
Cells with "n/a" have no entry in this list.
The databases behind each value are named after "via".

| SMILES | name | MP (°C) | via |
|---|---|---|---|
| COc1ccc(C(=CC(=O)N2CCOCC2)c2ccc(F)cc2)cc1OC | Flumorph | 108 | OCHEM |
| Brc1ccc(Oc2ccc(Br)cc2Br)cc1 | 2,4,4'-Tribromodiphenyl ether | 64.2 | OCHEM |
| CCN(CCCl)c1ccc(N=Nc2c(Cl)cc([N+](=O)[O-])cc2Cl)c(C)c1 | n/a | 125.5 | eChemPortal |
| C[C@@H](Cc1ccccc1)NC(=O)[C@@H](N)CCCCN | Lisdexamfetamine | 121 | PubChem |
| Clc1ccccc1-c1cc(Cl)c(Cl)c(Cl)c1Cl | 2,2',3,4,5-Pentachlorobiphenyl | 100 | QSARDB |
| CCCNC(=O)NC(=O)CCl | 2-Chloro-N-(propylcarbamoyl)acetamide | 120 | OCHEM |
| CC(=O)Cc1c(Cl)cc(Cl)cc1Cl | 1-(2,4,6-Trichlorophenyl)-2-propanone | 68.3 | eChemPortal |
| CCOC(=O)CC(SP(=O)(OC)OC)C(=O)OCC (stereo unspecified) | Malaoxon | 20 | PubChem |
| C[C@@H]1C[C@H](O)[C@]2(O)O[C@@H]3C[C@@]4(C=O)[C@@H](CC[C@@H]5[C@@H]4CC[C@]4(C)[C@@H](C6=CC(=O)OC6)CC[C@]54O)C[C@H]3O[C@@H]2O1 | Calotropin | 223 | PubChem |
| Oc1cc(Cl)ccc1Oc1ccc(Cl)cc1 | Soneclosan | 73.6 | eChemPortal |
| CCOC(=O)C1(c2ccccc2)CCN(CCOCC2CCCO2)CC1 (stereo unspecified) | n/a | 28 | OCHEM |
| C/C=C1/C[C@@H](C)[C@@](C)(O)C(=O)OCC2=CCN(C)CC[C@@H](OC1=O)C2=O | Senkirkine | 198 | PubChem |
| COc1ccc(CCl)cc1Br | 2-bromo-4-(chloromethyl)-1-methoxybenzene | 48 | OCHEM |
| Nc1ccccc1C(=O)Oc1ccc2ccccc2c1 | Naphthalen-2-yl 2-aminobenzoate | 118 | PubChem |
| CCC(C)(C)OOC(=O)C(C)(C)C | n/a | -33 | eChemPortal |
| N#Cc1ccc(CN2CCNCC2)cc1 | 1-(4-Cyanobenzyl)piperazine | 215 | OCHEM |
| O=C(OOC(=O)c1ccc(Cl)cc1)c1ccc(Cl)cc1 | Peroxide, bis(4-chlorobenzoyl) | 137.5 | PubChem |
| CCCC1(CC)C(=O)NC(=O)NC1=O | 5-Ethyl-5-propylpyrimidine-2,4,6(1H,3H,5H)-trione | 144 | OCHEM |
| ClCc1coc(-c2cccs2)n1 | 4-(Chloromethyl)-2-(thiophen-2-yl)-1,3-oxazole | 51 | OCHEM |
| CC1(C)C(=O)NC(=O)NC1=O | 5,5-Dimethylbarbituric acid | 278 | OCHEM |
| C1=C(c2c[nH]c3ncccc23)CCNC1 | 3-(1,2,3,6-Tetrahydropyridin-4-yl)-1H-pyrrolo[2,3-b]pyridine | 182 | OCHEM |
| N#Cc1cn([C@@H]2O[C@H](CO)[C@@H](O)[C@H]2O)c2ncnc(N)c12 | Toyocamycin | 243 | OCHEM |
| C[N+](C)(C)Cc1ccccc1.[Br-] | N,N,N-Trimethyl(phenyl)methanaminium bromide | 231 | OCHEM |
| Cc1cc(NC(=O)CCl)on1 | 2-Chloro-N-(3-methyl-1,2-oxazol-5-yl)acetamide | 107 | OCHEM |
| Cc1cc(C=O)c(C)n1C(C)C | 1-Isopropyl-2,5-dimethyl-1H-pyrrole-3-carbaldehyde | 46 | OCHEM |
| CN(C)[P+](Cc1ccccc1)(N(C)C)N(C)C.F[B-](F)(F)F | n/a | 147 | eChemPortal |
| CC(C)(C)c1cc(-c2cc(C(C)(C)C)cc(C(C)(C)C)c2Op2oc3ccccc3c3ccccc3o2)c(Op2oc3ccccc3c3ccccc3o2)c(C(C)(C)C)c1 | n/a | 233 | eChemPortal |
| Clc1ccc(Cl)c(-c2ccccc2)c1 | 2,5-Dichlorobiphenyl | 23 | QSARDB |
| C[C@H](N)Cc1ccccc1 | Dextroamphetamine | 26.25 | PubChem |
| CN(/N=C/c1ccc(F)cc1)P(=O)(N1CC1)N1CC1 | TEPA,N-p-F-benzylidene-N-Me-hydrazin-1yl | 106 | OCHEM |
| COC12C[C@@H](CO)CN(C)[C@@H]1Cc1cn(C)c3cccc2c13 (some centres not stated) | (10-Methoxy-1,6-dimethylergolin-8-yl)methanol | 214 | eChemPortal |
| CNC(=O)c1cc(C#N)cc(C)c1NC(=O)c1cc(Cn2nnc(C(F)(F)F)n2)nn1-c1ncccc1Cl | Tetraniliprole | 228.8 | eChemPortal |
| CCCCCCCCCCCCCC(=O)O[C@@H]1[C@@H](C)[C@@]2(O)[C@@H](C=C(CO)C[C@]3(O)C(=O)C(C)=C[C@@H]23)[C@@H]2C(C)(C)[C@]12OC(C)=O | 12-O-Tetradecanoylphorbol-13-acetate | 72.22 | PubChem |
| COC(=O)c1occc1CBr | methyl 3-(bromomethyl)-2-furoate | 51 | OCHEM |
| COc1cc([C@@H]2c3cc4c(c(O)c3C[C@H]3COC(=O)[C@@H]32)OCO4)cc(OC)c1O | alpha-Peltatin | 236 | OCHEM |
| Brc1ccc(Oc2c(Br)cc(Br)cc2Br)c(Br)c1 | 2,2',4,4',6-Pentabromodiphenyl ether | 98.75 | OCHEM |
| Clc1ccc(Cl)c(-c2cc(Cl)c(Cl)c(Cl)c2Cl)c1 | 2,2',3,4,5,5'-Hexachlorobiphenyl | 85 | QSARDB |
| CC(=O)OC1=CC[C@H]2[C@@H]3CC[C@H]4CC=CC[C@]4(C)[C@H]3CC[C@]12C | (5alpha)-Androsta-2,16-dien-17-yl acetate | 98 | eChemPortal |
| N#C[C@@H](O)c1cccc(Oc2ccccc2)c1 | (2S)-Hydroxy(3-phenoxyphenyl)acetonitrile | -22.5 | eChemPortal |
| C[C@]12CCC(=O)N[C@@H]1CC[C@@H]1[C@@H]2CC[C@]2(C)C(=O)CC[C@@H]12 | n/a | 301 | eChemPortal |
| CN(CCCCCC(=O)O)S(=O)(=O)c1ccccc1.OCCN(CCO)CCO | n/a | 35.9 | eChemPortal |
| COc1coc(CSP(=O)(OC)OC)cc1=O | Endothion | 90.5 | PubChem |
| CCC(=O)c1ccc(OC)c(OC)c1 | 1-Propanone, 1-(3,4-dimethoxyphenyl)- | 62 | OCHEM |
| C=CCC1(C)C(O)=NC(=O)N=C1O | 2,4,6(1H,3H,5H)-Pyrimidinetrione, 5-methyl-5-(2- | 167 | OCHEM |
| N#Cc1ccc(C(F)(F)F)cc1Cl | 2-Chloro-4-(trifluoromethyl)benzonitrile | 82.5 | OCHEM |
| C#CCNC(=O)CCl | 2-chloro-n-prop-2-ynylacetamide | 65 | OCHEM |
| Cc1ccc(S(=O)(=O)NCCCCCC(=O)O)cc1.OCCN(CCO)CCO | n/a | 56.9 | eChemPortal |

Data: OPERA 2.9 data sets, kmansouri/OPERA on GitHub.